Experimental data as given in patent US5112848A, “Furan and pyrrole containing lipoxygenase inhibiting compounds” (Abbott Laboratories, priority 1990, dated 1992).

Target: T1, 5-lipoxygenase (Rattus norvegicus, UniProt P12527)
T1 construct: 20,000× g supernatant from homogenized RBL-1 cells; endogenous in cells; host or cells: RBL-1 cells (20,000 x g supernatant of homogenate)
T1 sequence (P12527 1-673): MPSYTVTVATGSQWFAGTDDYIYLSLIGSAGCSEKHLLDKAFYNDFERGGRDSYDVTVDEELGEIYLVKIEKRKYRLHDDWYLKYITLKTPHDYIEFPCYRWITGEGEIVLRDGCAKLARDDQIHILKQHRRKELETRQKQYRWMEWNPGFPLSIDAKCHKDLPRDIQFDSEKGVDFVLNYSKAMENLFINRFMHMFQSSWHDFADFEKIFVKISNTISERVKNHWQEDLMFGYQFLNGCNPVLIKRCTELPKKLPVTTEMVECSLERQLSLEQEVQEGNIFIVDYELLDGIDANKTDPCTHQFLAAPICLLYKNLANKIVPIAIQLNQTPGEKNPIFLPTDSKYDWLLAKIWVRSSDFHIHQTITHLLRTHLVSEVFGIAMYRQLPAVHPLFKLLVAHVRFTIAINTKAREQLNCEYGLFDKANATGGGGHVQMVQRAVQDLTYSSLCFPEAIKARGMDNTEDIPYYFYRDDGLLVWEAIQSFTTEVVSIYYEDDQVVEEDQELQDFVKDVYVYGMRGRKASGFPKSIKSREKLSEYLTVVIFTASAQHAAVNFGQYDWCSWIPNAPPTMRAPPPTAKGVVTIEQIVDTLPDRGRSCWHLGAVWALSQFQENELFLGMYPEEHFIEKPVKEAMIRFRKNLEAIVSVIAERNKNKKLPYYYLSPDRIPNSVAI
Assay: Inhibition of 5-lipoxygenase (20,000× g supernatant from homogenized RBL-1 cells)
Assay type: biochemical
Details: read-out: IC50 (concentration of compound producing 50% enzyme inhibition), linear regression of percentage inhibition versus log concentration
Description: Inhibition of 5-lipoxygenase activity was determined using the 20,000× g supernatant from homogenized RBL-1 cells in a similar manner to that described by Dyer and coworkers (Dyer, R. D.; Haviv, F.; Hanel, A. M.; Bornemier, D. A.; Carter, G. W. Fed. Proc., Fed. Am. Soc. Exp. Biol. 1984, 43, 1462A).

Row | Structure (SMILES) | IC50 [µM]
1 | CC(c1ccoc1)N(O)C(N)=O (centres unmarked) [Example 56, N-Hydroxy-N-(1-fur-3-ylethyl) urea] | 15
2 | Cc1cc(C)c(-c2ccc(C(C)N(O)C(N)=O)o2)c(C)c1 (centres unmarked) [Example 12, N-hydroxy-N-(5-(2,4,6-trimethylphenyl)-fur-2-ylethyl) urea] | 0.3
